The test has as its target HDAC3 in combination with the DAD domain of NCoR2 (Homo sapiens, UniProt O15379). Nature of the test: HDAC inhibition continuous. The format is biochemical.

Sequences of proteins named here, by UniProt entry; tags and fusion partners are left off. A change or cut given only in a name is not applied to a line headed by its entry.
UniProt O15379: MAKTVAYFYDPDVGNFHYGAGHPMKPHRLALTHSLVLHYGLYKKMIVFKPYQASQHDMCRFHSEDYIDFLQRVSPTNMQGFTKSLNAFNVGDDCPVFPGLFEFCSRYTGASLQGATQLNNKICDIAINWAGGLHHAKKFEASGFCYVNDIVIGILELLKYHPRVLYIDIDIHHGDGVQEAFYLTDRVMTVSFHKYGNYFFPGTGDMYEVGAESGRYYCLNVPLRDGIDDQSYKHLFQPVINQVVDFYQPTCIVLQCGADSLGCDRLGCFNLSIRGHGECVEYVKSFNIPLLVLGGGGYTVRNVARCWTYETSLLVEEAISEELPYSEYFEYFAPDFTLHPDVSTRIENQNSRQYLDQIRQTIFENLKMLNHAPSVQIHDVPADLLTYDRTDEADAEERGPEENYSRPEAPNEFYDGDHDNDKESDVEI

For trichostatin A [Compound S1], the “Mechanism of binding HDAC3” value is given as “effectively irreversible behavior”.

The values are drawn from publication PMC6982123 (ACS chemical neuroscience, 2019).
